{"source": "PubChem BioAssay (NCI)", "assay_in_all_cases": "NCI-60 cell line screen, 48 h", "key": {"BT-549 breast": {"tested_on": "BT-549 breast"}, "PC-3 prostate": {"tested_on": "PC-3 prostate"}, "K-562 leukemia": {"tested_on": "K-562 leukemia"}, "OVCAR-3 ovarian": {"tested_on": "OVCAR-3 ovarian"}, "IGROV1 ovarian": {"tested_on": "IGROV1 ovarian"}, "HT29 colon": {"tested_on": "HT29 colon"}, "COLO 205 colon": {"tested_on": "COLO 205 colon"}, "RXF 393 renal": {"tested_on": "RXF 393 renal"}, "NCI/ADR-RES ovarian": {"tested_on": "NCI/ADR-RES ovarian"}, "OVCAR-8 ovarian": {"tested_on": "OVCAR-8 ovarian"}, "HCT-116 colon": {"tested_on": "HCT-116 colon"}, "NCI-H522 lung": {"tested_on": "NCI-H522 lung"}, "CAKI-1 renal": {"tested_on": "CAKI-1 renal"}, "LOX IMVI melanoma": {"tested_on": "LOX IMVI melanoma"}, "EKVX NSCLC": {"tested_on": "EKVX NSCLC"}, "HOP-62 NSCLC": {"tested_on": "HOP-62 NSCLC"}, "UO-31 renal": {"tested_on": "UO-31 renal"}, "MALME-3M melanoma": {"tested_on": "MALME-3M melanoma"}, "A549 NSCLC": {"tested_on": "A549 NSCLC"}, "OVCAR-5 ovarian": {"tested_on": "OVCAR-5 ovarian"}, "786-0 renal": {"tested_on": "786-0 renal"}, "SNB-19 CNS": {"tested_on": "SNB-19 CNS"}, "HOP-92 NSCLC": {"tested_on": "HOP-92 NSCLC"}, "SF-539 CNS": {"tested_on": "SF-539 CNS"}, "TK-10 renal": {"tested_on": "TK-10 renal"}, "DU-145 prostate": {"tested_on": "DU-145 prostate"}, "NCI-H322M lung": {"tested_on": "NCI-H322M lung"}, "SR leukemia": {"tested_on": "SR leukemia"}}, "note": "Some of these compounds have results that are not shown, active ones among them.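 Test compounds were applied to cells in 96-well plates for 48 hours at 5 doses. The concentration for 50% growth inhibition is given as GI50. TGI: total growth inhibition.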"}
{"compound": "CN1CCCC(OC(=O)C(O)(C#Cc2ccccc2)c2ccccc2)C1", "note": "(stereo unspecified)", "values": [{"measurement": "GI50", "setting": "BT-549 breast", "result": "> 100", "unit": "µM"}, {"measurement": "TGI", "setting": "BT-549 breast", "result": "> 100", "unit": "µM"}, {"measurement": "GI50", "setting": "PC-3 prostate", "result": "> 100", "unit": "µM"}, {"measurement": "TGI", "setting": "PC-3 prostate", "result": "> 100", "unit": "µM"}, {"measurement": "GI50", "setting": "K-562 leukemia", "result": "> 100", "unit": "µM"}, {"measurement": "TGI", "setting": "K-562 leukemia", "result": "> 100", "unit": "µM"}, {"measurement": "GI50", "setting": "OVCAR-3 ovarian", "result": "> 100", "unit": "µM"}, {"measurement": "TGI", "setting": "OVCAR-3 ovarian", "result": "> 100", "unit": "µM"}, {"measurement": "GI50", "setting": "IGROV1 ovarian", "result": "> 100", "unit": "µM"}, {"measurement": "TGI", "setting": "IGROV1 ovarian", "result": "> 100", "unit": "µM"}, {"measurement": "GI50", "setting": "HT29 colon", "result": "> 100", "unit": "µM"}, {"measurement": "TGI", "setting": "HT29 colon", "result": "> 100", "unit": "µM"}, {"measurement": "GI50", "setting": "COLO 205 colon", "result": "> 100", "unit": "µM"}, {"measurement": "TGI", "setting": "COLO 205 colon", "result": "> 100", "unit": "µM"}, {"measurement": "GI50", "setting": "RXF 393 renal", "result": "> 100", "unit": "µM"}, {"measurement": "TGI", "setting": "RXF 393 renal", "result": "> 100", "unit": "µM"}, {"measurement": "GI50", "setting": "NCI/ADR-RES ovarian", "result": "> 100", "unit": "µM"}, {"measurement": "TGI", "setting": "NCI/ADR-RES ovarian", "result": "> 100", "unit": "µM"}, {"measurement": "GI50", "setting": "OVCAR-8 ovarian", "result": "> 100", "unit": "µM"}, {"measurement": "TGI", "setting": "OVCAR-8 ovarian", "result": "> 100", "unit": "µM"}, {"measurement": "GI50", "setting": "HCT-116 colon", "result": "> 100", "unit": "µM"}, {"measurement": "TGI", "setting": "HCT-116 colon", "result": "> 100", "unit": "µM"}, {"measurement": "GI50", "setting": "NCI-H522 lung", "result": "> 100", "unit": "µM"}, {"measurement": "TGI", "setting": "NCI-H522 lung", "result": "> 100", "unit": "µM"}, {"measurement": "GI50", "setting": "CAKI-1 renal", "result": "> 100", "unit": "µM"}, {"measurement": "TGI", "setting": "CAKI-1 renal", "result": "> 100", "unit": "µM"}, {"measurement": "GI50", "setting": "LOX IMVI melanoma", "result": "> 100", "unit": "µM"}, {"measurement": "TGI", "setting": "LOX IMVI melanoma", "result": "> 100", "unit": "µM"}, {"measurement": "GI50", "setting": "EKVX NSCLC", "result": "> 100", "unit": "µM"}, {"measurement": "TGI", "setting": "EKVX NSCLC", "result": "> 100", "unit": "µM"}, {"measurement": "GI50", "setting": "HOP-62 NSCLC", "result": "> 100", "unit": "µM"}, {"measurement": "TGI", "setting": "HOP-62 NSCLC", "result": "> 100", "unit": "µM"}, {"measurement": "GI50", "setting": "UO-31 renal", "result": "> 100", "unit": "µM"}, {"measurement": "TGI", "setting": "UO-31 renal", "result": "> 100", "unit": "µM"}, {"measurement": "GI50", "setting": "MALME-3M melanoma", "result": "> 100", "unit": "µM"}, {"measurement": "TGI", "setting": "MALME-3M melanoma", "result": "> 100", "unit": "µM"}, {"measurement": "GI50", "setting": "A549 NSCLC", "result": "> 100", "unit": "µM"}, {"measurement": "TGI", "setting": "A549 NSCLC", "result": "> 100", "unit": "µM"}, {"measurement": "GI50", "setting": "OVCAR-5 ovarian", "result": "> 100", "unit": "µM"}, {"measurement": "TGI", "setting": "OVCAR-5 ovarian", "result": "> 100", "unit": "µM"}, {"measurement": "GI50", "setting": "786-0 renal", "result": "> 100", "unit": "µM"}, {"measurement": "TGI", "setting": "786-0 renal", "result": "> 100", "unit": "µM"}, {"measurement": "GI50", "setting": "SNB-19 CNS", "result": "> 100", "unit": "µM"}, {"measurement": "TGI", "setting": "SNB-19 CNS", "result": "> 100", "unit": "µM"}, {"measurement": "GI50", "setting": "HOP-92 NSCLC", "result": "> 100", "unit": "µM"}, {"measurement": "TGI", "setting": "HOP-92 NSCLC", "result": "> 100", "unit": "µM"}, {"measurement": "GI50", "setting": "SF-539 CNS", "result": "> 100", "unit": "µM"}, {"measurement": "TGI", "setting": "SF-539 CNS", "result": "> 100", "unit": "µM"}, {"measurement": "GI50", "setting": "TK-10 renal", "result": "> 100", "unit": "µM"}, {"measurement": "TGI", "setting": "TK-10 renal", "result": "> 100", "unit": "µM"}, {"measurement": "GI50", "setting": "DU-145 prostate", "result": "> 100", "unit": "µM"}, {"measurement": "TGI", "setting": "DU-145 prostate", "result": "> 100", "unit": "µM"}, {"measurement": "GI50", "setting": "NCI-H322M lung", "result": "> 100", "unit": "µM"}, {"measurement": "TGI", "setting": "NCI-H322M lung", "result": "> 100", "unit": "µM"}, {"measurement": "GI50", "setting": "SR leukemia", "result": 51.1, "unit": "µM"}, {"measurement": "TGI", "setting": "SR leukemia", "result": "> 100", "unit": "µM"}]}
